# Screens: PubChem, ICCB-Longwood Screening Facility, Harvard Medical School
# GIV-Gai inh = inhibitors of GIV peptide binding to Galpha-i3, primary screen, biochemical, fluorescence polarization, FITC-GIV GBA peptide, rat Galphai3 | 90 min; hits give low values; scaled: aluminum fluoride 0%, vehicle 100% | percent of control (FP), % (concentration not given with the values) | 210,000 compounds, 0.42% hits | AID 1224905, 2016;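 active = replicate mean at 85% of control or lower, very high polarization wells dropped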;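 also: wells of about 15 µL received 100 nL stock; the first replicate is given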
# HCMV UL50-53 inh = disrupts HCMV UL50-UL53 complex binding. HTRF UL50-UL53 interaction, normalized percent inhibition. inhibition, % (test concentration not listed). 190,000 tested, 0.15% active. AID 1918969; in the data active means inhibition above about 27%, passing the limit was not always enough
# Numbers stand for hits; 0 = inactive; - = no result; ! = not confirmed by another sample. A selection: hits, their analogues and other compounds. The true share with any hit is near 0.46%.
SMILES,GIV-Gai inh,HCMV UL50-53 inh
CCCN1CC=C2C(C1)C(c1ccc(C(=O)OC)cc1)C(C#N)=C(N)C2(C#N)C#N (configuration not stated),0,0
CCN1CC=C2C(C1)C(c1ccc(Cl)s1)C(C#N)=C(N)C2(C#N)C#N (configuration not stated),-52,0
CCOc1cc(/C=C2/C(=O)N(c3ccccc3)N=C2C)ccc1OS(=O)(=O)c1ccccc1,0,60
COc1cc(/C=C2/C(=O)N(c3ccccc3)N=C2C)ccc1OS(=O)(=O)c1ccccc1[N+](=O)[O-],0,0
Cn1c(=O)oc2cc(S(=O)(=O)CCC(=O)O)ccc21,0,0
CN1C(N)=NC(=O)/C1=C/c1coc2ccccc2c1=O,0,0
N=C1/C(=C\c2coc3ccccc3c2=O)C(=O)N=C2SC=NN12,-55,-
N#Cc1ccc(CC(C#N)(Cc2ccc(C#N)cc2)c2nnc3n2CCCCC3)cc1,-,0
CC1(C)CC(=O)C2=C(C1)Nc1ccccc1N(CC(=O)Nc1ccc(F)cc1)C2c1ccccc1 (configuration not stated),0,-
C=CCn1c(/C=C/C=C2N(CC)c3cc(Cl)c(Cl)cc3N2CC)[n+](CCCS(=O)(=O)[O-])c2cc(Cl)c(Cl)cc21,0,-
CCCCCN1/C(=C\C=C\c2n(CC)c3cc(Cl)c(Cl)cc3[n+]2CCCCC)N(CC)c2cc(Cl)c(Cl)cc21,-62,-
CCCCN1/C(=C/C=C/c2n(CCCC)c3cc(Cl)c(Cl)cc3[n+]2C)N(C)c2cc(Cl)c(Cl)cc21,37,-
CC(=O)OCCN1C(=C/C=C/c2n(CCOC(C)=O)c3cc(Cl)c(Cl)cc3[n+]2CCOC(C)=O)N(CCOC(C)=O)c2cc(Cl)c(Cl)cc21,0,-
O=C(CC1COc2ccccc2O1)Nc1cccc(C(F)(F)F)c1 (configuration not stated),-,0
COc1cccc(-c2cc(-c3ccccc3)c(C#N)c(SCC(=O)NC3CC3)n2)c1,0,-
COc1cccc(CC(=O)N2CCOc3ccc(CN(C(=O)C4CC4)c4ccccc4)cc3C2)c1,0,-
Cc1ccc(COc2ccc(C3CC(=O)Nc4c3c(C)nn4-c3ccc4nnc(C)n4n3)cc2)cc1 (configuration not stated),0,-
CCOC(=O)C1CCCN(C(=O)Cn2c(=O)c3ccccc3n3c(=S)sc(-c4cccc(F)c4)c23)C1 (configuration not stated),77,0
CCOC(=O)C1CCCN(C(=O)Cn2c(=O)c3ccccc3n3c(=S)sc(-c4ccc(Cl)cc4)c23)C1 (configuration not stated),0,0
O=C(Nc1ccc(SCc2nnc(-c3ccccc3)o2)cc1)c1cccc(Cl)c1,0,-
CC1CCC(NS(=O)(=O)c2ccc(-c3ccno3)s2)CC1 (configuration not stated),0,-
CC(C)NS(=O)(=O)c1ccc(-c2ccno2)s1,31,-
O=c1cc(C(F)(F)F)c2cc(Cl)c(O)cc2o1,-94,0
COc1ccc(-c2cc(=O)oc3cc(O)c(Cl)cc23)cc1,0,0
CC1Cc2ccccc2N1S(=O)(=O)c1ccc2[nH]c(=O)[nH]c2c1 (configuration not stated),-,0
SMILES,GIV-Gai inh,HCMV UL50-53 inh
Cc1[nH]c(=O)[nH]c(=O)c1S(=O)(=O)N1c2ccccc2CC1C (configuration not stated),-73,-
Cc1noc(C)c1CSc1nc2ccccc2c(=O)n1C(C)C,-,0
CNc1nc(SCc2c(C)noc2C)nc2ccccc12,-,51
Oc1c(C=NCc2ccccc2)[nH]c2ccc(Br)c(Cl)c12,0,-
Oc1c(C=NC2CCCCC2)[nH]c2ccc(Br)c(Cl)c12,-64,-
O=C(Oc1c(-c2ccco2)oc2ccccc2c1=O)c1cccs1,0,0
CCNc1cc(N(C)C)c2noc3c2c1C(=O)c1ccccc1-3,-21,-
CC1CCN(CCNc2cc(N(C)C)c3noc4c3c2C(=O)c2ccccc2-4)CC1,-4.4,0
Cc1ccc(Nc2cc(N(C)C)c3noc4c3c2C(=O)c2ccccc2-4)cc1,0,-
CN(C)c1cc(Nc2ccc(Cl)cc2)c2c3c(onc13)-c1ccccc1C2=O,0,0
CCOC(=O)c1c(NC=O)sc(C)c1C,-,0
O=C1CCC(C(=O)OCC(=O)Nc2ccc(N3CCOCC3)cc2)=NN1,-,0
CSC1=C(C#N)C2(CCCCC2)C(c2nc(-c3ccc(C)cc3)cs2)C(N)=N1 (configuration not stated),-,0
CC(OC(=O)c1ccc2c(=O)n3c(nc2c1)CCCCC3)C(=O)N1CCCc2ccccc21 (configuration not stated),-,0
CCCN1C(=O)/C(=C/c2ccc(CC)cc2)NC1=S,0,-
CCCN1C(=O)/C(=C/c2cc(Br)c(O)c(OCC)c2)NC1=S,-83,0
Cn1c(SCC(=O)c2ccc3c(c2)CCCC3)nnc1-c1ccc2c(c1)OCCCO2,0,-
CCCC(=O)NC(C)c1nc(-c2ccccc2)no1 (configuration not stated),0,0
N#Cc1c(S/C=C(\O)c2ccccc2)nc2c(c1C(F)(F)F)CCCC2,-44,0
N#Cc1c(N=CN2CCCCC2)nc2c(c1-c1ccccc1)CCCC2,0,0
CCOC(=O)Cn1cc(/C=C2\C(=O)NC(=O)N(c3ccc(F)cc3)C2=O)c2ccccc21,-36,-
CCOC(=O)Cn1cc(/C=C2\C(=O)NC(=O)N(c3ccc(Br)cc3)C2=O)c2ccccc21,0,0
CCOC(=O)C1CCN(C(=O)CCCn2nc(C)c3sc4ccccc4c3c2=O)CC1,0,0
O=C1N=C(c2ccccc2)S/C1=C\c1cccs1,0,-
Cc1c(/C=C2\SC(c3ccccc3)=NC2=O)c(=O)n(-c2ccccc2)n1C,-4.0,-
SMILES,GIV-Gai inh,HCMV UL50-53 inh
O=S(=O)(/N=C\c1cc(Br)ccc1O)c1cccs1,-,0
Oc1ccc2ccccc2c1C=NCc1ccccc1,0,60
O=c1oc2ccccc2c(O)c1/C=N/c1ncccn1,-,0
O/N=C/c1c(O)ccc2ccccc12,0,0
Oc1ccc2ccccc2c1/C=N/c1ncccn1,-,99
CC(NC(=O)c1ccccc1N=Cc1c(O)ccc2ccccc12)c1ccccc1 (configuration not stated),-,68!
O=S(=O)(/N=C/c1c(O)ccc2ccccc12)c1cccs1,-,98
CC(C(=O)Nc1cccc(N=Cc2c(O)ccc3ccccc23)c1)c1ccccc1 (configuration not stated),-,0
CSc1sc(Cl)c2c1C(=O)CCC2,0,0
O=C(Nc1ccccc1)c1ccc(N2C(=O)C3C4C=CC(C4)C3C2=O)cc1 (configuration not stated),0,0
Cc1ccc(C(=O)Nc2ncnc3oc(-c4ccccc4)c(-c4ccccc4)c23)cc1,0,-
O=S(=O)(NC1CCCCC1N1CCN(C2CCCCC2)CC1)c1ccccc1 (configuration not stated),0,0
NN1C=NN2C(SCC(=O)Nc3nnc(SCC(=O)Nc4ccc(Cl)c(Cl)c4)s3)=NNC12 (configuration not stated),0,-
CN/N=C/c1c(O)ccc2ccccc12,-,49
O=CN/N=C/c1c(O)ccc2ccccc12,-,0
O=C(NCCN1CCOCC1)c1cc2nc(-c3ccc4c(c3)OCO4)cc(C(F)(F)F)n2n1,0,0
CCc1ccccc1N1C(=O)NC(=O)/C(=C\c2ccc(N(CC)CC)o2)C1=O,-59,0
CCOc1ccc(N2C(=O)NC(=O)/C(=C\c3ccc(Br)o3)C2=O)cc1,0,-
O=C(Nc1cccc(-c2nn3cnnc3s2)c1)c1cccnc1,0,-
